We go through one substance from PMC4152863 (Regulatory peptides, 2013).

Amino acid sequences for entries named in this document (tags omitted).
UniProt P25095, whole entry: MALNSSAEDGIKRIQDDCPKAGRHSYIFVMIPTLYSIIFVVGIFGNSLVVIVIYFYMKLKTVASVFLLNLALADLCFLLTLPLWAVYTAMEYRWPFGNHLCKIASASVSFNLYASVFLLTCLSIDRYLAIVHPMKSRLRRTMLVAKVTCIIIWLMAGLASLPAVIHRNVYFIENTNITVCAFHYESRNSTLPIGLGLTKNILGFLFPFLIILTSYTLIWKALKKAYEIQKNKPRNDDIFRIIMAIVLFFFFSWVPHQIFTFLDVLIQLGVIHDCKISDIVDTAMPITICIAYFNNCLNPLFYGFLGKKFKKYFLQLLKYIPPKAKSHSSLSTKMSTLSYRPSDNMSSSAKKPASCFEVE

This assay deals with liver AT1 receptors (Rattus norvegicus, UniProt P25095). Type of assay: binding. More on the design: Kd of 125I-SI Ang II binding: unit not given beside the values.

On to “125I-Sarcosine1, Isoleucine8 angiotensin II [125I-SI Ang II]”, for which the “Bmax of 125I-SI Ang II binding” value is recorded as 23.3±0.89 and the “Kd of 125I-SI Ang II binding” value worked out at 3.57±0.20.
